# The list shows a part of the results, in another mix than the full data. Active and inactive are the calls of the source. How the calls were made is not given here.
# Amino acid sequences for entries named in this document (tags omitted). A change or cut given only in a name is not applied to a line headed by its entry.
# UniProt O00574: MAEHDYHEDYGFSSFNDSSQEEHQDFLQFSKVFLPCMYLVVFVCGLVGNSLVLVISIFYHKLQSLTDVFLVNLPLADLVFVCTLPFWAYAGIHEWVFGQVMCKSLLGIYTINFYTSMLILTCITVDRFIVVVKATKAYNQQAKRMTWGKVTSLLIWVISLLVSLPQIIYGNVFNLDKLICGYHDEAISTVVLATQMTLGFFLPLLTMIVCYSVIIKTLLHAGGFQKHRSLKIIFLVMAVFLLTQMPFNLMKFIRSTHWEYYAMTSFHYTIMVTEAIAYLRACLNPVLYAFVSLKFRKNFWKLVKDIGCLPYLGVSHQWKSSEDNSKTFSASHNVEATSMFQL
# UniProt P51684: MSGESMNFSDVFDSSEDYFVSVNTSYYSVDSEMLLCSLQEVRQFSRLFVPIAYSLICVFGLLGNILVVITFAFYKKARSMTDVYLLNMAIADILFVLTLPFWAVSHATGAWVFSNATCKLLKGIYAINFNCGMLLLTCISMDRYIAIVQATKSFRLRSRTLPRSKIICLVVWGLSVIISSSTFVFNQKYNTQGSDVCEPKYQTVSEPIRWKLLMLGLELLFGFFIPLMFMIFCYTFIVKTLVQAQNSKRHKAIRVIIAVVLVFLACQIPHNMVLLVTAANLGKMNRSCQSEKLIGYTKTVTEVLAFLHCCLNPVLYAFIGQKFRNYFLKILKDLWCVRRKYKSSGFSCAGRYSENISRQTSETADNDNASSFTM
# UniProt P35414: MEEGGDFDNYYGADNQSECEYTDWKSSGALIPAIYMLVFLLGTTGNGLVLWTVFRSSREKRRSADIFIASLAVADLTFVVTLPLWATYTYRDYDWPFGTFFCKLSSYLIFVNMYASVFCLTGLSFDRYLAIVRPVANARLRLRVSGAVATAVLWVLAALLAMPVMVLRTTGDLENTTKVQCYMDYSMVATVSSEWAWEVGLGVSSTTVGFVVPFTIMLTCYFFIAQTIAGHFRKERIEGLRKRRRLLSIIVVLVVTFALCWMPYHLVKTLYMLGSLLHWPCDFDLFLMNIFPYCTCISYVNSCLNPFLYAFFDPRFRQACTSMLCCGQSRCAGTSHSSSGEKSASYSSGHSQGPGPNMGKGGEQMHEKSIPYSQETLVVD
# Columns and labels:
# Assay in all cases: potency against CXCR6 with APJ panel – cell-based, beta-arrestin, DiscoveRx, uHTS hits, dose response (AID 624129)
# [1] = target: C-X-C chemokine receptor type 6 (Homo sapiens) (UniProt O00574); conditions: CXCR6 beta-arrestin (DiscoveRx) antagonist cell assay
# [2] = target: C-C chemokine receptor type 6 (Homo sapiens) (UniProt P51684); conditions: CXCR6 beta-arrestin (DiscoveRx) antagonist cell assay
# [3] = target: Apelin receptor (Homo sapiens) (UniProt P35414); conditions: CXCR6 beta-arrestin (DiscoveRx) antagonist cell assay, APJ
# [4] = CXCR6, dose range 1, mean IC50 across replicates
# [5] = CXCR6, run 2, dose range 1, at 79 µM (top of the series)
# [6] = CCR6, dose range 1, mean IC50 across replicates
# [7] = dose range 1, mean IC50 across replicates
Compound,"outcome ([1]; CXCR6, dose range 1)","IC50 [1, 4] [µM]","IC50 ([1]; CXCR6, run 1, dose range 2) [µM]","inhibition [1, 5] [%]","IC50 ([1]; CXCR6, run 2, dose range 2) [µM]","IC50 ([1]; CXCR6, dose range 1)","inhibition ([1]; CXCR6, run 1, dose range 2, at 80 µM (top of the series)) [%]","IC50 ([1]; CXCR6, run 2, dose range 1) [µM]","IC50 ([2]; CCR6, dose range 1) [µM]","IC50 [2, 6] [µM]","IC50 ([2]; CCR6, run 2, dose range 1) [µM]",IC50 ([3]; dose range 1) [µM],"IC50 [3, 7] [µM]","IC50 ([3]; run 2, dose range 1) [µM]","IC50 ([3]; run 3, dose range 1) [µM]"
O=c1c2cc([N+](=O)[O-])ccc2[nH]c2c([N+](=O)[O-])cc([N+](=O)[O-])cc12,inactive,31.8,29.7,99.5,34,,,,,,,,,,
C[N+]1=C2C=CC=CC=C2SC12C([N+](=O)[O-])=CC([N+](=O)[O-])=C[C-]2[N+](=O)[O-] (stereo not drawn),,24.8,,,,inactive,129,33.1,24.7,32.7,40.7,7.87,15.2,14.9,22.7
CSc1ccc(Nc2c([N+](=O)[O-])cc([N+](=O)[O-])cc2[N+](=O)[O-])cc1,inactive,33.1,35.1,90.7,31.2,,,,,,,,,,
CN(C)C(=O)c1cc([N+](=O)[O-])cc2c1-c1c(cc([N+](=O)[O-])cc1[N+](=O)[O-])C2=O,,10.3,9.18,,10.4,12.4 µM,,9.34,8.11,7.39,6.66,45.3,36.2,27.1,> 80

# From PubChem BioAssay AID624129 (Sanford-Burnham Center for Chemical Genomics, 2012)
